Laboratory results as given in ChEMBL document CHEMBL1148243, “Indoline derivatives as 5-HT(2C) receptor agonists” (Bioorg Med Chem Lett, 2004).

Sequences of proteins named here, by UniProt entry; tags and fusion partners are left off. A change or cut given only in a name is not applied to a line headed by its entry.
UniProt P28223, whole entry: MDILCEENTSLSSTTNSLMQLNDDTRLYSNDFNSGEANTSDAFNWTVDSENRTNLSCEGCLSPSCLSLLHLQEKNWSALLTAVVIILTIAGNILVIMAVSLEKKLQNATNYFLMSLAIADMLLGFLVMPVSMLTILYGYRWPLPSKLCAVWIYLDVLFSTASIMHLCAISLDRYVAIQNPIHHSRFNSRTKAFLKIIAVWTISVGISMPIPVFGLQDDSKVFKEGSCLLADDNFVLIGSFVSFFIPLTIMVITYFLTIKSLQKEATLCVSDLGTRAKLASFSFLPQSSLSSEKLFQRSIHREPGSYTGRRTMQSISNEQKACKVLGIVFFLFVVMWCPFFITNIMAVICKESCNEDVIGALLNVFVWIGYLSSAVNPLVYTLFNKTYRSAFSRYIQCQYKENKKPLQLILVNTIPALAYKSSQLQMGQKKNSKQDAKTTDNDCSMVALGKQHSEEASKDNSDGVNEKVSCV
UniProt P41595, whole entry: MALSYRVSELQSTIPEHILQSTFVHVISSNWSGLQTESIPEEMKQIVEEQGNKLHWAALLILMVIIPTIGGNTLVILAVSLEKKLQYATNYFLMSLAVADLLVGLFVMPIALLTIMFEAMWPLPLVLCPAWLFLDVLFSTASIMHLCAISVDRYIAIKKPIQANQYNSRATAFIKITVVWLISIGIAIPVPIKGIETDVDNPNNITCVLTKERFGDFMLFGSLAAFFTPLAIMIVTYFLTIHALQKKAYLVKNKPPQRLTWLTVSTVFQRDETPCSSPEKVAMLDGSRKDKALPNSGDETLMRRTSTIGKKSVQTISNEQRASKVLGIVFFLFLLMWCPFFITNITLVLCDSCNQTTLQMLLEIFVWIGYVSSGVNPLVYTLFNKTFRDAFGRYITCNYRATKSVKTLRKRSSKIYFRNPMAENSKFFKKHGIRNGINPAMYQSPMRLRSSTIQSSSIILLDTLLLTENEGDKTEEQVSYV
UniProt P28335: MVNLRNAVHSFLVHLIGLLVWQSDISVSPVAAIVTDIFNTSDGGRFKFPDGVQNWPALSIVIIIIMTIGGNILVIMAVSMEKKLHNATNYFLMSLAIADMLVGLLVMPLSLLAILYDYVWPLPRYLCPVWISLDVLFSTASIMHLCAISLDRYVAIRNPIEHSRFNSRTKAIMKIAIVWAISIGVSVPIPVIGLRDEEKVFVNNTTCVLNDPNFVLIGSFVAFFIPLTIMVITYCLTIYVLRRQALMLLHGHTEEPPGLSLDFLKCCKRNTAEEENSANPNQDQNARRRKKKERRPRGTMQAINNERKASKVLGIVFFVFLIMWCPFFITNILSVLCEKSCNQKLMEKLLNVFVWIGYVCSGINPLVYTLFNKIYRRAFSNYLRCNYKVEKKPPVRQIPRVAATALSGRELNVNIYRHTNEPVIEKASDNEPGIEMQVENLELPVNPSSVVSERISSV

Key:
[1] = target: T1, 5-hydroxytryptamine receptor 2A (Homo sapiens, UniProt P28223); test: Functional activity against human 5-hydroxytryptamine 2A receptor expressed in CHO cells using fluorometric imaging plate reader; type: cell-based
[2] = target: T1, 5-hydroxytryptamine receptor 2A; test: Affinity for human 5-hydroxytryptamine 2A receptor expressed in mammalian cell line
[3] = target: T2, 5-hydroxytryptamine receptor 2B (Homo sapiens, UniProt P41595); test: Functional activity against human 5-hydroxytryptamine 2B receptor expressed in CHO cells using fluorometric imaging plate reader; type: cell-based
[4] = target: T2, 5-hydroxytryptamine receptor 2B; test: Affinity for human 5-hydroxytryptamine 2B receptor expressed in mammalian cell line
[5] = target: T3, 5-hydroxytryptamine receptor 2C (Homo sapiens, UniProt P28335); test: Functional activity against human 5-hydroxytryptamine 2C receptor expressed in CHO cells using fluorometric imaging plate reader; type: cell-based
[6] = target: T3, 5-hydroxytryptamine receptor 2C; test: Affinity for human 5-hydroxytryptamine 2C receptor expressed in mammalian cell line

`Clc1cccc(N2CCNCC2)c1` [CHLOROPHENYLPIPERAZINE] gave an EC50 [1] of 75 nM, a Ki [2] of 54 nM and an EC50 [3] of over 1000 nM. For the same compound, the Ki [4] was 32 nM, the EC50 [5] was 26 nM and the Ki [6] was 9 nM.
